# Measurements from PMC7723054.
# The other results are listed elsewhere or left out.
# T1: LIN28A (human?, UniProt Q9H9Z2 1-209)
# T1 sequence: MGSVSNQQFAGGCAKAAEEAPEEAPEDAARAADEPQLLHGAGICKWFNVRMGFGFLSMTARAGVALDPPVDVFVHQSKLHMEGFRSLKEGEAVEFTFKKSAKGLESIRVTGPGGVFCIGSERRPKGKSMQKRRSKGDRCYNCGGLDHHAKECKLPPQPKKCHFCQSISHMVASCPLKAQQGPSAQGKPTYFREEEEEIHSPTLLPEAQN
# T2: CIRBP (Homo sapiens, UniProt Q14011 1-172)
# T2 sequence: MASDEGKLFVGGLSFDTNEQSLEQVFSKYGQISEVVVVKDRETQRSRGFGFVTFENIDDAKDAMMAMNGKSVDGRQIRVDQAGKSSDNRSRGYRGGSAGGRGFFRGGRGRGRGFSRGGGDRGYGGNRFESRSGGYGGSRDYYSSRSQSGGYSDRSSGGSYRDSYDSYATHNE
# T3: DHX36 (Homo sapiens, UniProt Q9H2U1 1-1008)
# T3 sequence: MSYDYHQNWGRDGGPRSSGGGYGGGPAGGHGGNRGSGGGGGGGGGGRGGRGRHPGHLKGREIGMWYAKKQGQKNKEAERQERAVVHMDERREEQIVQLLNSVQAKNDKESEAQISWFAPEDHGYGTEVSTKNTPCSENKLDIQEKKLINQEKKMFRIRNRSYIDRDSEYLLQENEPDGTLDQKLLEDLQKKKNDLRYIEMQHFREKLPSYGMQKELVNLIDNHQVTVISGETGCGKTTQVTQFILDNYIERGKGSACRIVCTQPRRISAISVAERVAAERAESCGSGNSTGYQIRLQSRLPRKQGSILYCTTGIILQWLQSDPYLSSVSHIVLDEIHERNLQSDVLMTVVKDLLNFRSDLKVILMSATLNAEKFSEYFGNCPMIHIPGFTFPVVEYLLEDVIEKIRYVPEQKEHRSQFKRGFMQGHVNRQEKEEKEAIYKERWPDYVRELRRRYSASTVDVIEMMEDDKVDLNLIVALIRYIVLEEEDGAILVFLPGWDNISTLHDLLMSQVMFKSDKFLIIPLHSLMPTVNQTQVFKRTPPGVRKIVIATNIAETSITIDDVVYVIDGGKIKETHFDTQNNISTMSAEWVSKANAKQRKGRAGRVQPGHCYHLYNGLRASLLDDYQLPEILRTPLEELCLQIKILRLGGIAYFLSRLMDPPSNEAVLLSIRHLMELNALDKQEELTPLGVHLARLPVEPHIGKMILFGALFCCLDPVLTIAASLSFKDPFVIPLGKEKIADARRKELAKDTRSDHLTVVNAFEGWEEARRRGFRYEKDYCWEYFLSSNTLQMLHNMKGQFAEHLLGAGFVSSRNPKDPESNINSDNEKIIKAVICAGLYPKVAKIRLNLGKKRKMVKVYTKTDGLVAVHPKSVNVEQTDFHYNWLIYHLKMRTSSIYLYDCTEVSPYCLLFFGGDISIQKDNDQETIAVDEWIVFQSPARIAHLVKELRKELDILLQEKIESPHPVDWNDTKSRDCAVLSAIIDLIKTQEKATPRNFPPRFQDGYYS
# Tests used:
# Experiment in all cases: FOREST: bead pull-down of RNA structure library v1, barcode microarray; U1A/LIN28A: 20 mM HEPES pH 7.5, 80 mM KCl, 20 mM NaCl, 10% glycerol, 2 mM DTT, 0.1 ug/uL BSA, 4 C; BG4/CIRBP/DHX36: 10 mM Tris-HCl pH 7.5, 100 mM KCl (or LiCl),; high values mean tight binding
# LIN28A = target: T1, LIN28A
# CIRBP = target: T2, CIRBP
# DHX36 = target: T3, DHX36
Binder,binding signal (LIN28A) [z-score],binding signal (CIRBP) [z-score],binding signal (DHX36) [z-score]
hsa-mir-764 (structured_RNA) RNA: GGGAUGCUGAACGUGAAAUGAUAGGUGGGGUGUACGAAGUUUCAGCUCCUCCAUGCUUGGAAAAUGCAGGGAGGAGCUGAAGCUUCGUGCAC,-0.174,1.41,0.385
hsa-mir-5100 (structured_RNA) RNA: GGGAAUUCAUAUGACCAUCGGCCUAGUUGGUGUACGAAGUUUCAGCUGGAGCUAGACCACAUGGGUUCAGCUGAAGCUUCGUGCAC,-0.174,0.0704,-1.05
hsa-mir-103a-1 (structured_RNA) RNA: GGGAGGAGCCACUAGAGCUAGUUGUUCUGGUGUACGAAGUUUCAGCGCCUUGUUGCAUAUGGAUCAAGCGCUGAAGCUUCGUGCAC,-0.176,-0.803,0.379
hsa-mir-509-2_509-3_509-1 (structured_RNA) RNA: GGGAUUAGACGGGCCAUCGAAAUGGUUUGGUGUACGAAGUUUCAGCAUCAUGUAUAAUUAAAAAUGAUGCUGAAGCUUCGUGCAC,-0.176,-0.000746,-0.124
hsa-mir-302e (structured_RNA) RNA: GGGAGUAGAGCUAAAUGCGUACAAUACGGGUGUACGAAGUUUCAGCUUCAGUUUCCUUACUGGUAAGCUGAAGCUUCGUGCAC,-0.177,-0.714,
hsa-mir-6724-2_6724-3_6724-1_6724-4 (structured_RNA) RNA: GGGAGGGAGCAUAUGCGCUAGGGAAUAGGGUGUACGAAGUUUCAGCGGGCUGCCCGGGCCGGUCGACCAGCGCGCCGUAGCUCCGCUGAAGCUUCGUGCAC,-0.178,-0.226,0.867
hsa-mir-3923 (structured_RNA) RNA: GGGAGCCAUUCGAUGCAUGAAGCUCACUGGUGUACGAAGUUUCAGCAGCUUCUUUAUAAGAAGAGGAAACUGCUGAAGCUUCGUGCAC,-0.179,-0.714,-0.804
hsa-mir-890 (structured_RNA) RNA: GGGACCGCGCUGUACGGAUUACGAUUCGGGUGUACGAAGUUUCAGCGUUGCUUAGAUUACAUGUAACGCUGAAGCUUCGUGCAC,-0.184,0.135,-1.04
hsa-mir-548aa-1 (structured_RNA) RNA: GGGAAGUUCAAGUCGGAUCAAAGUGAAUGGUGUACGAAGUUUCAGCUUUUGCCAUUACUUUUACAGGCAAAAGCUGAAGCUUCGUGCAC,-0.187,1.57,-0.0537
hsa-mir-4660 (structured_RNA) RNA: GGGAAAGCCCGCUACUAGUUAAAGAUACGGUGUACGAAGUUUCAGCGGAGAAGACUUUUCCUUUCCUCCGCUGAAGCUUCGUGCAC,-0.19,0.522,-1.08
hsa-mir-1204 (structured_RNA) RNA: GGGAAACCUAUCGAGGCGGAUAAAGACCGGUGUACGAAGUUUCAGCUUAUUUGAGAUGAGUUACAUCUUGGAGGGCUGAAGCUUCGUGCAC,-0.19,0.35,-0.617
hsa-mir-4666a (structured_RNA) RNA: GGGAAUUUGACCCAUGUACGGAAGUGAAGGUGUACGAAGUUUCAGCUAUGCCUACAAAAUCCCUCCAGACUGGCAUAGCUGAAGCUUCGUGCAC,-0.191,-1.39,-0.0281
hsa-mir-6080 (structured_RNA) RNA: GGGAACACCGCGCUAGGACAUGGUAACCGGUGUACGAAGUUUCAGCGGGGCUGGUUGUCUAGCUGAAGCUUCGUGCAC,-0.193,-0.359,-0.874
hsa-mir-6741 (structured_RNA) RNA: GGGAGUAAAUCGGGAUUUAGCAGGUUGUGGUGUACGAAGUUUCAGCCCGUGCCCUGGCCACUCAUUCGGGCUGAAGCUUCGUGCAC,-0.194,-0.146,0.65
hsa-mir-5704 (structured_RNA) RNA: GGGAAAUAAUGGUUGGGCUCUCCACCUGGGUGUACGAAGUUUCAGCAUGCUAAGUCCAUGGGCAAACAUGCUGAAGCUUCGUGCAC,-0.199,0.414,-0.599
hsa-mir-4434 (structured_RNA) RNA: GGGAUCGGAGACAUGCGCGAAGAUACCCGGUGUACGAAGUUUCAGCAGAACUUUGGUUUUGCUGAAGCUUCGUGCAC,-0.199,-1.65,-1.4
hsa-mir-182 (structured_RNA) RNA: GGGAACUUUACCUGGACUGAUCCGGUGAGGUGUACGAAGUUUCAGCCACACUGGUGAGGUAACAGGAUCCGGUGGCUGAAGCUUCGUGCAC,-0.199,-1.17,-1.09
hsa-mir-3119-1 (structured_RNA) RNA: GGGAACACACGGGUCGACUAUCCGCUUGGGUGUACGAAGUUUCAGCUGGCAAAGGGGUAGCUAAACAAUCUAUGUCUUUGCCAGCUGAAGCUUCGUGCAC,-0.2,-1.53,-0.847
hsa-mir-4713 (structured_RNA) RNA: GGGAAGGAUACAGGCAUAGCCUCGCAUAGGUGUACGAAGUUUCAGCCCCAUAAGGGUCGAAUGGGGCUGAAGCUUCGUGCAC,-0.2,-0.426,-1.19
hsa-mir-6802 (structured_RNA) RNA: GGGAACCGCGGCCGUAUACGCUAAUUAAGGUGUACGAAGUUUCAGCUGAAGCCCCGAGAUGCCUCACGUCUUCAGCUGAAGCUUCGUGCAC,-0.203,-0.621,-0.594
hsa-mir-4745 (structured_RNA) RNA: GGGAAACGUAAUUGCCGGUAGGAUGGUCGGUGUACGAAGUUUCAGCGACGGCGCCCGCCCUGGCCCUGGCGCUGAAGCUUCGUGCAC,-0.205,0.0677,-0.0813
hsa-mir-2117 (structured_RNA) RNA: GGGAACCACUCGCUUUAGAGCAUCCUACGGUGUACGAAGUUUCAGCAACAGCAGGAUUGGCUGUAGCUGUUGCUGAAGCUUCGUGCAC,-0.208,-0.12,-0.0851
hsa-mir-1273d (structured_RNA) RNA: GGGACGUGACACAUGGAUGCAUUAACCUGGUGUACGAAGUUUCAGCCAGUGAGCCAAGAUCGUGCCACUGGCUGAAGCUUCGUGCAC,-0.213,-0.253,-0.969
hsa-mir-6750 (structured_RNA) RNA: GGGAAAUAUCCAACGACCCGUCCCAUAGGGUGUACGAAGUUUCAGCGCUGCUGCCCCAGAGGCCCAGCAGGUGUCCAGAACGCUGAAGCUUCGUGCAC,-0.213,-1.59,-0.812
hsa-mir-1243 (structured_RNA) RNA: GGGAAGUGGGAAUUAGAAUCGGUACUCCGGUGUACGAAGUUUCAGCAGUGAAAUAAAGGUCCAUCUCCUGCCUAUUUAUUACUUUGCUGCUGAAGCUUCGUGCAC,-0.213,-1.76,-0.612
hsa-mir-6814 (structured_RNA) RNA: GGGAACCGCCGAAACUAGCUAUGUUUGUGGUGUACGAAGUUUCAGCUGCCACCCAGCCCUGCAGAGCCCCUGACUCGCUGAAGCUUCGUGCAC,-0.218,-0.133,0.927
